In patent publication US11986532B2 (Arvinas Operations, Inc., priority 2021, dated 2024):

Target: BCL6 (Homo sapiens, UniProt P41182)
Assay: Immunofluorescence protocol for high content imaging of BCL6 (degradation) in T47D cells, 3 days compound treatment
Settings: for DC50: read-out: Mean DC50 (nM)* category
Method: Immunofluorescence Protocol for High Content Imaging of BCL6
T47D cells were seeded in 100 μl volume of RPMI1640-10% FBS in a 96-well black/clear bottom plates for adherent lines (Corning #3904).
Day 1. T47D breast cancer epithelial cells were seeded at a density so that confluence is ˜70-90% at endpoint. Cells were seeded at 7K/0.1 ml/well the morning prior to the addition of exemplary bifunctional degradation compounds.
Day 2. Prepare an 11 point 3-fold serial dilution of exemplary bifunctional compound in DMSO and aliquot an appropriate volume to cell growth media to generate a 2× final concentration of exemplary bifunctional compound. Add an equal volume (0.1 ml) of 2× exemplary bifunctional compound/media mix to previously plated cells, for a final top concentration in aqueous cell growth media of 0.1 or 1 μM. Incubate for 3 days at 37° C., 5% CO2.
Day 5 Immunofluorescence. Discard cell media. Wash wells with 200 μl of room temperature phosphate-buffered saline (PBS). Prepared 4% paraformaldehyde (PFA) from 16% PFA (Electron Microscopy Sciences #15710) using 1×PBS. Fifty μl of 4% PF was added to each well and incubate for 15 minutes at room temperature to fix the cells. The PFA was aspirated and the cells washed twice with PBS (200 μl)).
Prepared 0.1% Triton X-100 in PBS using 10% triton X-100 stock. The cells were permeabilized by adding 100 ul of the 0.1% Triton X-100 in PBS to each well to permeabilize cells and incubating at room temperature for 15 minutes. Cells were washed twice with PBS.
Prepared 3% BSA/PBS (from Thermofisher #37515 Blocker BSA in TBS, 10%), and 100 ul was added to each well. The cells were incubated for at least 1 hour at room temperature.
Prepared 1% BSA/PBS using Blocker BSA/PBS, and the 3% BSA/PBS removed from the wells.
For no primary antibody controls, 50 μl 1% BSA/PBS was added.
Primary antibody (BCL6 Rb Ab, CST-14895, Cell Signaling) was diluted 1:300 in 1% BSA/PBS using Blocker BSA/PBS.
Fifty μl of primary antibody added to all remaining wells (i.e., all wells other than the primary antibody controls) and the cells were incubated overnight at 4° C. with slow orbital movement.
Day 6. Contents of the wells was removed and the cells washed four times with 200 ul PBS. 1% BSA/PBS was prepared using Blocker BSA in PBS.
Diluted secondary antibody goat anti-Rb IgG Alexa-488 1:1000, and cell mask-Alexa-647 1:3000 in 1% BSA/PBS in the same mix. Add 50 μl to each well and incubate at room temperature for 1 hour in the dark.
Cells were washed three times with 200 ul PBS, and then incubated for 10 minutes with 100 ul Hoechst dye at 1 μg/mL (20 mM stock) to stain cell nuclei. […]
Plates were equilibrated to room temperature prior to reading. […]

| SMILES | Mean Dmax (%)** category | DC50 [nM] |
| --- | --- | --- |
| CCOc1c(N2CC3(CCC(OC4CCN(c5ncc(Cl)c(Nc6ccc7c(c6)cc(OCC(=O)NC)c(=O)n7C(C)C)n5)CC4)CC3)C2)ccc2c1CN(C1CCC(=O)NC1=O)C2=O (stereo not shown) | B (50 <= B < 70) | < 10 |
| CNC(=O)COc1cc2cc(Nc3nc(N4CCC(O[C@H]5C[C@H](N6C7CCC6CN(c6ccc8c(c6)CN(C6CCC(=O)NC6=O)C8=O)C7)C5)CC4)ncc3Cl)ccc2n(C(C)C)c1=O (stereo partly shown) | B (50 <= B < 70) | < 10 |
